Reference: patent US6387881B1, “Inhibitors and substrates of thrombin” (priority 1992, dated 2002)

Molecular target: human α-thrombin (Homo sapiens, UniProt P00734)
Type: biochemical
Procedure: The inhibition of human α-thrombin was determined by the inhibition of the enzyme catalyzed hydrolysis of three different concentrations of the chromogenic substrate S-2238.
200 μl of sample or buffer and 50 μl of S-2238 were incubated at 37° C. for 1 min and 50 μl of human α-thrombin (0.25 NIHu/ml) was added. The initial rate of inhibited and uninhibited reactions were recorded at 405 nm. The increase in optical density was plotted according to the method of Lineweaver and Burke. The Km and apparent Km were determined and Ki was calculated using the relationship: [formula]

N=C(N)NCCCC(NC(=O)C1CCCN1C(=O)C(N)Cc1cccc2ccccc12)C(=O)CCC(=O)N1CCCCC1 (mixture of isomers) [Compound 9, D,L-α-Nal-Pro-Arg--k--Gly-Pip]
Ki: 13.5 µM
